# Binding of CDR-mutated scFvs to a peptide of the spike HR2 region

The measurements come from Engelhart et al. 2022 (doi:10.1038/s41597-022-01779-4) through the FLAb antibody collection.

Antigen: PDVDLGDISGINAS, a 14-residue peptide of the SARS-CoV-2 spike HR2 region.

The variants keep the light chain, the linker and the frameworks of Ab-14 (scFv order VH, the linker GGGGSGGGGSGGGGS, VL).
VH: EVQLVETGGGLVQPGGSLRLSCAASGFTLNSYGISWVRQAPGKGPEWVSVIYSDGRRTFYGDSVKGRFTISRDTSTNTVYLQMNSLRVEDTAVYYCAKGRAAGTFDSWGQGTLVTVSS
VL: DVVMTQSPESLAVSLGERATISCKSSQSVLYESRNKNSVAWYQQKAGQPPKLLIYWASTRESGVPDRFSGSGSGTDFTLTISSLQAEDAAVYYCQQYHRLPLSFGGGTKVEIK

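The parent was found by panning a naive human phage display library on the peptide. Variants in AAYL49 differ from the parent at up to three CDR positions; double and triple changes were sampled at random. AlphaSeq pools MATa yeast showing the antibodies with MATalpha yeast showing the peptide. After mating in shaken culture at 30 °C for 16 h, diploids were selected and their barcode pairs sequenced. A regression on co-assayed BCL2-family reference pairs converts the normalised counts of each replicate to an apparent Kd. Each pool was mated in three replicate cultures.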

Variants are written as CDR1, CDR2 and CDR3 of the heavy chain (limits as in the source). Parent: GFTLNSYGIS, VIYSDGRRTFYGDSVK, GRAAGTFDS. All variants listed here change G55 of the VH, counted from its first residue. Values are apparent Kd, the geometric mean of the replicates that gave a signal; lower means stronger binding. "nd" means that the variant was in the library but no mating with the target was seen in any replicate; the authors take this as a sign of poor binding, and no number exists. Parent in this assay: reference entry 4.4 nM, copy in this library 13 µM (one replicate of three). Nonspecific signal, from three strains lacking the peptide, appeared in 15% of pairings of library AAYL49, centred on 11 µM (5% of these signals below 680 nM); values are not corrected for it. The control count says in how many pairings with the empty strains this scFv gave a signal.

* GFTLNSYWIS | VYYSDCRRTFYGDSVK | GRAAGTFDS: nd (0 of 3 replicates; controls 0 of 9)
* GFTLNSYGIS | VIYSDFRRTFYGDSSK | GRAAKTFDS: nd (0 of 3 replicates; controls 2 of 9)
* GFTLNSYGIS | VIYSDNRRTFYGDSVK | GQAAGTCDS: nd (0 of 3 replicates; controls 1 of 9)
* GFTLGSYGIS | VIYNDLRRTFYGDSVK | GRAAGTFDS: 13 µM (1 of 3 replicates; controls 3 of 9)
* GFTFSSYGIS | VIYSDVRRTFYGDSVK | GRAAGTFDS: 71 µM (2 of 3 replicates; controls 0 of 9)
* GFTLNSYGIS | VIYVDVRRTFYGDSVK | GRAAGTFDP: nd (0 of 3 replicates; controls 1 of 9)
* GFTLNSYGIS | VIYSDTRRCFYGDSVK | GRAAGTKDS: nd (0 of 3 replicates; controls 1 of 9)
* GFTVNSYGIS | VIYSDTRRTFYGDSVK | GRAAGTFDS: nd (0 of 3 replicates; controls 0 of 9)
* GKTLNSYGIS | VIYSDSRRTFYGDSVK | GRAAGTFDL: nd (0 of 3 replicates; controls 0 of 9)
* GGTLNSYGIS | YIYSDSRRTFYGDSVK | GRAAGTFDS: 4.3 µM (1 of 3 replicates; controls 0 of 9)
* GFTLNSYGVS | VIYIDQRRTFYGDSVK | GRAAGTFDS: 1.3 µM (2 of 3 replicates; controls 0 of 9)
* GFTLNSYGIS | VNYSDDRRTFYGDSVK | GRAAGTFDS: 18 µM (3 of 3 replicates; controls 3 of 9)
* GFTLNSYGIS | VIYSDMRRTFYGDSVK | GRHAGTFDS: nd (0 of 3 replicates; controls 0 of 9)
* GFTLNSYKIS | VIYSDFRRTKYGDSVK | GRAAGTFDS: nd (0 of 3 replicates; controls 1 of 9)
* GFTLNGYGIS | VIYSDRPRTFYGDSVK | GRAAGTFDS: nd (0 of 3 replicates; controls 0 of 9)
* GFTLNSYGIS | VIYSDWRRTFYGDSVK | GRAAGTFNG: nd (0 of 3 replicates; controls 0 of 9)
* GFTLNYYGIS | VIYSDKRRTFYDDSVK | GRAAGTFDS: 8.5 µM (1 of 3 replicates; controls 0 of 9)
* GFTLNSYGIS | VIYSDFRRTFYGDSVK | GRAAGTFDS: 52 µM (1 of 3 replicates; controls 1 of 9)
* GFTLNSYGIS | TIYSDDRRTFYGDSVK | GRAFGTFDS: 530 nM (1 of 3 replicates; controls 1 of 9)
* GFTLNSYGVS | VCYSDWRRTFYGDSVK | GRAAGTFDS: nd (0 of 3 replicates; controls 0 of 9)
* GFTGNSYGIS | VIYSDNRRTFYGDSVK | GRAAGTFDS: 26 µM (1 of 3 replicates; controls 1 of 9)
* GFTLPSYGIS | VIYSDNRRTFYGDSVK | GRAKGTFDS: 26 µM (1 of 3 replicates; controls 4 of 9)
* GFTLNSYGIS | CIYSDMRRQFYGDSVK | GRAAGTFDS: nd (0 of 3 replicates; controls 0 of 9)
* GFTLNSYGIS | VIYSSERRTFYGDSVL | GRAAGTFDS: nd (0 of 3 replicates; controls 3 of 9)
* GFTLNSYGIS | VIYSDFRGMFYGDSVK | GRAAGTFDS: nd (0 of 3 replicates; controls 0 of 9)
* GFTLNSYGIS | VIGSDMRRTFYGDSVK | GRAKGTFDS: nd (0 of 3 replicates; controls 0 of 9)
* GFTLNSYGIS | VKYSDFRRTFYGDSMK | GRAAGTFDS: 380 nM (1 of 3 replicates; controls 1 of 9)
* GFTPNSYGIS | VIYSDSRRTFYGDSAK | GRAAGTFDS: nd (0 of 3 replicates; controls 0 of 9)
* GFTLNLYGIS | VIYSDNRRTQYGDSVK | GRAAGTFDS: nd (0 of 3 replicates; controls 1 of 9)
* GFTLNSYGIS | VIYSDSRRTFEGCSVK | GRAAGTFDS: nd (0 of 3 replicates; controls 0 of 9)
* GFTLNSAGIL | VIYSDARRTFYGDSVK | GRAAGTFDS: nd (0 of 3 replicates; controls 0 of 9)
* GFTLNSYGIS | VIYSDHRRTFYGFSSK | GRAAGTFDS: 6.1 µM (1 of 3 replicates; controls 3 of 9)
* GFTLNSYGII | VIYSDNRRTRYGDSVK | GRAAGTFDS: nd (0 of 3 replicates; controls 0 of 9)
* GFTLNSYAIS | VIYSDLRRTFYIDSVK | GRAAGTFDS: 64 µM (2 of 3 replicates; controls 6 of 9)
* GFTLNSYGIS | VIYSFARRTFYGDYVK | GRAAGTFDS: nd (0 of 3 replicates; controls 0 of 9)
* GFTLNSYGIS | VIYSDCRRTFYSMSVK | GRAAGTFDS: nd (0 of 3 replicates; controls 1 of 9)
* GFTLNSYGIS | VIYSDDRRTFYGDSVW | GRAAGTFDS: 230 nM (1 of 3 replicates; controls 0 of 9)
* GNTLNSYGIS | VIYSDRRRTFYGDSVK | GRMAGTFDS: nd (0 of 3 replicates; controls 0 of 9)
* GFDLNSYGIS | VIYSDDRRTFYGDSVK | GRAAGTDDS: 75 µM (1 of 3 replicates; controls 2 of 9)
* GFTLNSYGIS | VIYWDCRRTFYGDSVK | GRIAGTFDS: nd (0 of 3 replicates; controls 3 of 9)
* GFTLNWMGIS | VIYSDCRRTFYGDSVK | GRAAGTFDS: nd (0 of 3 replicates; controls 2 of 9)
* GFTLNSYGAS | VIYSDFRRTFYGDSVK | GRAAGTFDS: 2.6 µM (1 of 3 replicates; controls 2 of 9)
* GSTLNSYGIS | VIYSDSRRTFFGDSVK | GRAAGTFDS: nd (0 of 3 replicates; controls 0 of 9)
* GFTLNSYGIS | VIYSDIRRTFYSDSEK | GRAAGTFDS: 25 µM (2 of 3 replicates; controls 3 of 9)
* GFTLNSYGIS | VIYSDERRTFFGDSVK | GRAAGTFDS: nd (0 of 3 replicates; controls 0 of 9)
* GFTLNSYGIS | VIYSDWRRTFYGDSVK | GRHAGWFDS: nd (0 of 3 replicates; controls 0 of 9)

The first 2 entries again:

- GFTLNSYWIS | VYYSDCRRTFYGDSVK | GRAAGTFDS = nd (0 of 3 replicates; controls 0 of 9)
- GFTLNSYGIS | VIYSDFRRTFYGDSSK | GRAAKTFDS = nd (0 of 3 replicates; controls 2 of 9)